From patent publication US20250152585A1, “PHARMACEUTICAL COMPOUND” (Duke Street Bio Limited, priority 2022, published 2025)
pIC50, pKd: −log10 of the molar value. Read-outs that look alike come from different tables or passages of the source.

Protein sequences, listed by entry. Tags and fused reporters are not part of them.
UniProt Q9UGN5, whole entry: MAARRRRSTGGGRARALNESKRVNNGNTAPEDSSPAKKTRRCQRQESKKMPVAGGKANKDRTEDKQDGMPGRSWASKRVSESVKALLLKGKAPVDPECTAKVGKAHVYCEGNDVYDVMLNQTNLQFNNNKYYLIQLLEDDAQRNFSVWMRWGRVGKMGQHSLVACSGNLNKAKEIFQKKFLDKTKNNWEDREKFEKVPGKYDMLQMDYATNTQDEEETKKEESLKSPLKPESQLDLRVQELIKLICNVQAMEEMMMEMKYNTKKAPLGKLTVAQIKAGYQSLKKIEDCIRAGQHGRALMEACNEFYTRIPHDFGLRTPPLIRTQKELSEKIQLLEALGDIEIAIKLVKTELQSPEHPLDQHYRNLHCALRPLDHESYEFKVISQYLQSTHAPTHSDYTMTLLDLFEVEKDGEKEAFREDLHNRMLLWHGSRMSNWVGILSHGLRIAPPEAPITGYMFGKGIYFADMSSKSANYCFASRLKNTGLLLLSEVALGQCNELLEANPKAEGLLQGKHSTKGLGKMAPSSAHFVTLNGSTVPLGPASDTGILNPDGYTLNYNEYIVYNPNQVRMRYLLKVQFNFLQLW
UniProt P09874, whole entry: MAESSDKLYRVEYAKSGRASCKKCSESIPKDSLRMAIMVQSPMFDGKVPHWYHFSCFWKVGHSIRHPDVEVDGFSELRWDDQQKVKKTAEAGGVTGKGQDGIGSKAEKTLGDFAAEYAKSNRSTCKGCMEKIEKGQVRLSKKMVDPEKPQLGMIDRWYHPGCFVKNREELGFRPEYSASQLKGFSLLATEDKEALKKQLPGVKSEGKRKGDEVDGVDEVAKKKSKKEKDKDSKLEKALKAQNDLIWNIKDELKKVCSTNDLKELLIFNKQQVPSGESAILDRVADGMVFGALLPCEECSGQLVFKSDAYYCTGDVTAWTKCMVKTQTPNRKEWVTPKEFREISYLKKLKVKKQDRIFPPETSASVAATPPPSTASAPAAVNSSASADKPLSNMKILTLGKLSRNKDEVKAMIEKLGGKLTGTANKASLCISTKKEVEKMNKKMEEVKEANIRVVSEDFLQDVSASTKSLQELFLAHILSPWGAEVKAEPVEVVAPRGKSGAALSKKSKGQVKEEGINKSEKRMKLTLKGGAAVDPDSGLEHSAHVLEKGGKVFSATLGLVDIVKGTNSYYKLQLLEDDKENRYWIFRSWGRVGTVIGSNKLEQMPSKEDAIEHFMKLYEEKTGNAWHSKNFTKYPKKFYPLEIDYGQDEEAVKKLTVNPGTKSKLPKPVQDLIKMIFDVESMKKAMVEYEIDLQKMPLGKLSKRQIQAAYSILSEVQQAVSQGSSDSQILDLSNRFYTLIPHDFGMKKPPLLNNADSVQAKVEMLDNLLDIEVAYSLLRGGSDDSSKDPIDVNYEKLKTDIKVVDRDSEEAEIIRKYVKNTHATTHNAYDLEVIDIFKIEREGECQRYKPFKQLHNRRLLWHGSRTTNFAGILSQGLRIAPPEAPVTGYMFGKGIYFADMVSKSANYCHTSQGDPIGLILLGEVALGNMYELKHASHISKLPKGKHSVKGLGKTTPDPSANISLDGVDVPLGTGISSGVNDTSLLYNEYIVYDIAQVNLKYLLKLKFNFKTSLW

Assays:
[1] = target: N-terminally FLAG-tagged PARP2 (amino acids 1-583) (Homo sapiens, UniProt Q9UGN5); test: PARP2 probe displacement HTRF assay; details: read-out: PARP2 HTRF, binned Kd
Procedure: This assay was performed under identical conditions as for PARP1, except that N-terminally FLAG-tagged PARP2 (amino acids 1-583) was used instead of PARP1, and PARP1/2 binding probe was used at 10-fold probe Kd=540 nM. Data analysis was performed identical as for PARP1.

[2] = target: T1, full length N-terminally FLAG-tagged PARP1 (Homo sapiens, UniProt P09874); test: PARP1 probe displacement HTRF assay; details: for Selectivity: PARP1 over PARP2, ratio Kd (PARP2)/Kd (PARP1); for pKd: read-out: PARP1 HTRF, binned Kd
[3] = target: T1, full length N-terminally FLAG-tagged PARP1; test: PARP1 biochemical DELFIA assay (auto-PARylation); details: read-out: PARP1 DELFIA
[4] = binned IC50, biochemical auto-PARylation assay
[5] = binned IC50, PARP1 biochemical DELFIA assay

SMILES	pKd ([1]; probe displacement HTRF)	Selectivity ([2]; probe displacement HTRF)	pKd ([2]; probe displacement HTRF)	pIC50 [3, 4]	pKd ([1]; PARP2 probe displacement HTRF)	pKd ([2]; PARP1 probe displacement HTRF)	pIC50 [3, 5]
CNS(=O)(=O)c1ccc(N2CCC(N3CCC(c4cc5ccccc5c(=O)[nH]4)C3)CC2)cc1 (single isomer, unassigned) [348a]	6.00 to 7.00	− (− indicates a value of less than 10)	7.00 to 8.00	7.00 to 8.00	–	–	–
CNC(=O)c1ccc(N2CCC(N3CCCC(c4ccc(C(F)(F)F)c(=O)[nH]4)C3)CC2)cn1 (stereo not drawn)	–	+++ (+++ indicate a value of at least 100)	–	–	5.00 to 6.00	> 8.00	> 8.00
CCc1cc(F)c(C2CCN(C3CCN(c4ccc(C(=O)NC)nc4)CC3)C2)[nH]c1=O (stereo not drawn)	6.00 to 7.00	+++ (+++ indicate a value of at least 100)	> 8.00	> 8.00	–	–	–
CNC(=O)c1ccc(N2CCC(N3CCC(c4cc5c(Cl)cncc5c(=O)[nH]4)C3)CC2)c(F)n1 (single isomer, unassigned) [367a]	6.00 to 7.00	+++ (+++ indicate a value of at least 100)	> 8.00	> 8.00	–	–	–
CCc1ccc(C2CCN(C3CCN(c4ccc(C(=O)NCC(F)F)nc4)CC3)C2)[nH]c1=O (single isomer, unassigned) [Compound 354b]	5.00 to 6.00	+++ (+++ indicate a value of at least 100)	7.00 to 8.00	7.00 to 8.00	–	–	–
CNC(=O)c1cc(C)c(N2CCC(N3CCC(c4cc5ccc(F)cc5c(=O)[nH]4)C3)CC2)cn1 (single isomer, unassigned) [Compound 202b]	–	+ (+ indicates a value of 10 to less than 50)	–	–	6.00 to 7.00	7.00 to 8.00	7.00 to 8.00
CNC(=O)c1ccc(N2CCC(N3CCC(c4cc5c(c(=O)[nH]4)CCNC5=O)C3)CC2)cn1 (single isomer, unassigned)	< 5.00	+++ (+++ indicate a value of at least 100)	7.00 to 8.00	7.00 to 8.00	–	–	–
CCc1ccc(C2CCN(C3CCN(c4ccc(C(=O)NC)nn4)CC3)C2)[nH]c1=O (single isomer, unassigned) [Compound 210b]	–	+ (+ indicates a value of 10 to less than 50)	–	–	< 5.00	6.00 to 7.00	6.00 to 7.00
CCc1ccc(C2CCN(C3CCN(c4ccc(C#N)cn4)CC3)C2)[nH]c1=O (single isomer, unassigned) [Compound 332b]	5.00 to 6.00	+ (+ indicates a value of 10 to less than 50)	6.00 to 7.00	6.00 to 7.00	–	–	–
O=C(NCC1COC1)c1ccc(N2CCC(N3CCC(c4nc5ccccc5c(=O)[nH]4)C3)CC2)cn1 (stereo not drawn)	5.00 to 6.00	+++ (+++ indicate a value of at least 100)	> 8.00	> 8.00	–	–	–
CNC(=O)c1ccc(N2CCC(N3CC4CC4(c4nc5ccccc5c(=O)[nH]4)C3)CC2)cn1 (single isomer, unassigned) [359b]	< 5.00	+ (+ indicates a value of 10 to less than 50)	6.00 to 7.00	7.00 to 8.00	–	–	–
CN(C)C(=O)c1ccc(N2CCC(N3CCC(c4nc5ccccc5c(=O)[nH]4)C3)CC2)cn1 (stereo not drawn)	–	–	–	–	–	–	6.00 to 7.00
CCc1ccc(C2CCN(C3CCN(c4ccc(C(=O)NC)nc4C#N)CC3)C2)[nH]c1=O (single isomer, unassigned)	5.00 to 6.00	+++ (+++ indicate a value of at least 100)	> 8.00	> 8.00	–	–	–
CCc1ccc(C2CCN(C3CCN(c4ccc(C(=O)NC)cc4C#N)CC3)C2)[nH]c1=O (single isomer, unassigned)	< 5.00	+ (+ indicates a value of 10 to less than 50)	6.00 to 7.00	6.00 to 7.00	–	–	–
CCc1ccc(C2CCN(C3CCN(c4ccc(C#N)cc4F)CC3)C2)[nH]c1=O (single isomer, unassigned)	5.00 to 6.00	+++ (+++ indicate a value of at least 100)	> 8.00	> 8.00	–	–	–
CNC(=O)c1ccc(N2CCC(N3CCCC(c4cnc(C)c(=O)[nH]4)C3)CC2)cn1 (stereo not drawn)	–	+ (+ indicates a value of 10 to less than 50)	–	–	< 5.00	6.00 to 7.00	6.00 to 7.00
CNC(=O)c1ccc(N2CCC(N3CCC(c4cc5c(Cl)cncc5c(=O)[nH]4)C3)CC2)c(F)n1 (single isomer, unassigned) [367b]	5.00 to 6.00	+++ (+++ indicate a value of at least 100)	> 8.00	> 8.00	–	–	–
CC(=O)Nc1ccc(N2CCC(N3CCC(c4cc5ccccc5c(=O)[nH]4)C3)CC2)c(Cl)c1 (single isomer, unassigned) [Compound 273a]	6.00 to 7.00	+ (+ indicates a value of 10 to less than 50)	7.00 to 8.00	7.00 to 8.00	–	–	–

SMILES	pKd ([1]; probe displacement HTRF)	Selectivity ([2]; probe displacement HTRF)	pKd ([2]; probe displacement HTRF)	pIC50 [3, 4]	pKd ([1]; PARP2 probe displacement HTRF)	pKd ([2]; PARP1 probe displacement HTRF)	pIC50 [3, 5]
CNC(=O)c1cc(C(F)(F)F)c(N2CCC(N3CCC(c4cc5ccc(F)cc5c(=O)[nH]4)C3)CC2)cn1 (single isomer, unassigned) [292b]	6.00 to 7.00	+++ (+++ indicate a value of at least 100)	> 8.00	> 8.00	–	–	–
CNC(=O)c1ccc(N2CCC(N3CCC(c4nc5c(C)scc5c(=O)[nH]4)C3)CC2)cn1 (single isomer, unassigned) [Compound 232a]	6.00 to 7.00	+++ (+++ indicate a value of at least 100)	> 8.00	> 8.00	–	–	–
CNC(=O)c1ccc(N2CCC(N3CC4CC4(c4nc5ccccc5c(=O)[nH]4)C3)CC2)cn1 (single isomer, unassigned) [359a]	5.00 to 6.00	++ (++ indicates a value of 50 to less than 100)	7.00 to 8.00	7.00 to 8.00	–	–	–
CNC(=O)c1ccc(N2CCC(N3CCC(c4cc5cccc(F)c5c(=O)[nH]4)C3)CC2)c(C#N)n1 (single isomer, unassigned) [351a]	5.00 to 6.00	+++ (+++ indicate a value of at least 100)	> 8.00	> 8.00	–	–	–
CCc1c(F)cc(C2CCN(C3CCN(c4ccc(C(=O)NC)nc4)CC3)C2)[nH]c1=O (stereo not drawn)	5.00 to 6.00	+++ (+++ indicate a value of at least 100)	> 8.00	> 8.00	–	–	–
CCc1ccc(C2CCN(C3CCN(c4ccc(C(=O)NC)cc4F)CC3)C2)[nH]c1=O (single isomer, unassigned) [364a]	< 5.00	+ (+ indicates a value of 10 to less than 50)	6.00 to 7.00	6.00 to 7.00	–	–	–
CNC(=O)c1ccc(N2CCC(N3CCC(c4nc5c(C(F)(F)F)c[nH]c5c(=O)[nH]4)C3)CC2)cn1 (single isomer, unassigned) [Compound 293a]	5.00 to 6.00	− (− indicates a value of less than 10)	6.00 to 7.00	6.00 to 7.00	–	–	–
CNC(=O)c1ccc(N2CCC(N3CCC(c4ccc(C)c(=O)[nH]4)C3)CC2)cn1 (stereo not drawn)	5.00 to 6.00	+++ (+++ indicate a value of at least 100)	> 8.00	> 8.00	–	–	–
CNC(=O)c1ccc(N2CCC(N3CCC(c4nc5ccccc5c(=O)[nH]4)CC3)C2)cn1 (stereo not drawn)	–	+ (+ indicates a value of 10 to less than 50)	–	–	6.00 to 7.00	7.00 to 8.00	7.00 to 8.00
CNC(=O)c1ccc(N2CCC(N3CCC(c4cc5cccc(F)c5c(=O)[nH]4)C3)CC2)c(C#N)c1 (single isomer, unassigned) [347a]	6.00 to 7.00	+++ (+++ indicate a value of at least 100)	> 8.00	> 8.00	–	–	–
CCc1cc(C)c(C2CCN(C3CCN(c4ccc(C(=O)NC)nc4)CC3)C2)[nH]c1=O (stereo not drawn)	6.00 to 7.00	+++ (+++ indicate a value of at least 100)	> 8.00	> 8.00	–	–	–
CNC(=O)c1ccc(N2CCC(N3CCC(c4cc5c(C(F)(F)F)n[nH]c5c(=O)[nH]4)C3)CC2)cn1 (stereo not drawn)	5.00 to 6.00	− (− indicates a value of less than 10)	6.00 to 7.00	6.00 to 7.00	–	–	–
CNC(=O)c1csc(N2CCC(N3CCC(c4cc5ccccc5c(=O)[nH]4)C3)CC2)n1 (single isomer, unassigned) [Compound 274a]	5.00 to 6.00	+ (+ indicates a value of 10 to less than 50)	6.00 to 7.00	7.00 to 8.00	–	–	–
CCc1ccc(C2CCN(C3CCN(c4cnc(C(=O)NC)nc4)CC3)C2)[nH]c1=O (stereo not drawn)	–	− (− indicates a value of less than 10)	–	–	< 5.00	6.00 to 7.00	6.00 to 7.00
CNC(=O)c1ccc(N2CCC(N3CCC(c4cc5cccc(F)c5c(=O)[nH]4)C3)CC2)c(C#N)c1 (single isomer, unassigned) [347b]	5.00 to 6.00	+++ (+++ indicate a value of at least 100)	7.00 to 8.00	7.00 to 8.00	–	–	–
CCc1ccc(C2CCN(C3CCN(c4ccc(C(=O)NC)cc4F)CC3)C2)[nH]c1=O (single isomer, unassigned) [364b]	6.00 to 7.00	++ (++ indicates a value of 50 to less than 100)	> 8.00	> 8.00	–	–	–
CNC(=O)c1ccc(N2CCC(N3CCC(c4cc5cccc(F)c5c(=O)[nH]4)C3)CC2)c(C#N)n1 (single isomer, unassigned) [351b]	6.00 to 7.00	+++ (+++ indicate a value of at least 100)	> 8.00	> 8.00	–	–	–
CCc1ccc(C2CCN(C3CCN(c4cnc(C(=O)NC)c(F)c4)CC3)C2)[nH]c1=O (single isomer, unassigned)	5.00 to 6.00	+ (+ indicates a value of 10 to less than 50)	7.00 to 8.00	7.00 to 8.00	–	–	–
